# Target: human recombinant kappa opioid receptor (human), P41145
# Test: radioligand binding
binder,measurement,value
YGGFLRRIRPKLKWDNQ (modifications not checked) [dynorphin A],pKi,10.3

# Reference: article PMC5183561
